Assay results from PubChem BioAssay AID651706 (NMMLSC, 2012).
This is a selection; strong and weak results do not stand in their true shares. Some of these compounds have results that are not shown, active ones among them. Activity calls are given as the source filed them.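 Rule for the calls: active = share of green or green-and-red cells above 9 and 9% in run 1 or 4 and 3% in run 2; inactive = the rest, inconclusive results apart.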

Experiment: differentiation of ER-HoxA9 arrested myeloid cells – cell-based, GFP/Mac1 flow cytometry, cherry pick 01, confirmation (AID 651706);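 note: plate controls were double positive share in DMSO wells for no effect and share in positive control wells for full effect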
Conditions: ER-HoxA9 myeloid progenitors, GFP/Mac1 double-positive flow; stronger effect = higher value

SMILES	differentiation response
CCN(CC)CC(C)C(C)OC(=O)C(O)(c1ccccc1)c1ccccc1 (stereo unspecified)	inactive: 1.4%
